Experimental data published in US5688774A (priority 1995, dated 1997).
Like-named read-outs stand apart in the source and are kept apart here.

Key:
[1] = target: T1, rat A3 receptor (Rattus norvegicus, UniProt P28647); assay: Displacement of [^125 I]AB-MECA (or [^125 I]APNEA) binding from membranes of CHO cells stably transfected with rat A3 cDNA; details: for A1 /A3 (printed Ai /A3): ratio Ki (A1) / Ki (A3); for A2a /A3: ratio Ki (A2a) / Ki (A3)
T1 sequence (P28647 1-320): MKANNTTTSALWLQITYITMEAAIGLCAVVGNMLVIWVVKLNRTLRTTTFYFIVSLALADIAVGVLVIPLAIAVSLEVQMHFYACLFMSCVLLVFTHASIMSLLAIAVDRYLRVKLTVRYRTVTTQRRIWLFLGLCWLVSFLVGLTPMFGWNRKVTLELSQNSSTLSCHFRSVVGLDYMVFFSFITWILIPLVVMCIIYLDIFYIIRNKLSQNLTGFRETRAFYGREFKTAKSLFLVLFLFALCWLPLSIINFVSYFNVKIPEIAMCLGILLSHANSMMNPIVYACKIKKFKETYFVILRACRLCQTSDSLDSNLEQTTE

[2] = target: T1, rat A3 receptor
[3] = target: T1, rat A3 receptor; assay: biochemical

Row | Compound | A1 /A3 (printed Ai /A3) [1] | A2a /A3 [1] | A1 /A3 (printed Ai /A3) [2] | Ki [2] | Ki [3] | Ki [1]
1 | 9-(β-talosyl)adenine | < 1 | < 1 | – | – | – | –
2 | CNC(=O)[C@H]1C[C@@H](n2cnc3c(NCc4cccc(I)c4)ncnc32)[C@H](O)[C@@H]1O (relative stereo) [Compound 61, (±)-9-[2α,3β-Dihydroxy-4β-(N-Methylcarbamoyl)Cyclopent-1β-yl)]-N^6-(3-Iodobenzyl)-adenine] | – | > 1 | 1.8 | – | – | –
3 | Cn1cnc2c(NCc3cccc(I)c3)ncnc21 [Compound 3, N^6-(3-Iodobenzyl)-9-Methyladenine] | – | 0.046 | 0.12 | – | – | –
4 | Cn1cnc2c(NCc3cccc(I)c3)nc(Cl)nc21 [Compound 6, 2-Chloro-N^6-(3-Iodobenzyl)-9-Methyladenine] | – | 0.053 | 0.0088 | – | – | –
5 | Cn1cnc2c(NCc3cccc(I)c3)nc(N)nc21 [Compound 9, 2-Amino-N^6-(3-iodobenzyl)-9-methyladenine] | 0.14 | 0.080 | – | 40.1 ± 5.7 µM | – | –
6 | Cn1cnc2c(NCc3cccc(I)c3)nc(NN)nc21 [Compound 10, 2-Hydrazido-N^6-(3-Iodobenzyl)-9-Methyladenine] | 0.050 | 0.18 | – | 109 ± 9 µM | – | –
7 | CNc1nc(NCc2cccc(I)c2)c2ncn(C)c2n1 [Compound 11, N^6-(3-Iodobenzyl)-2-Methylamino-9-Methyladenine] | – | 3.7 | 0.67 | – | – | –
8 | CN(C)c1nc(NCc2cccc(I)c2)c2ncn(C)c2n1 [Compound 12, 2-Dimethylamino-N^6-(3-Iodobenzyl)-9-Methyladenine] | – | 0.66 | 0.099 | – | – | –
9 | CCCNc1nc(NCc2cccc(I)c2)c2ncn(C)c2n1 [Compound 13, N^6-(3 -Iodobenzyl)-9-Methyl-2-Propylaminoadenine] | < 1 | < 1 | – | – | – | –
10 | CCCCCCNc1nc(NCc2cccc(I)c2)c2ncn(C)c2n1 [Compound 14, 2-Hexylamino-N^6-(3-Iodobenzyl)-9-Methyladenine] | < 1 | – | – | – | – | –
11 | COc1nc(NCc2cccc(I)c2)c2ncn(C)c2n1 [Compound 15, N^6-(3-Iodobenzyl)-2-Methoxy-9-Methyladenine] | – | 0.068 | 0.027 | – | – | –
12 | CSc1nc(NCc2cccc(I)c2)c2ncn(C)c2n1 [Compound 16, N^6-(3-Iodobenzyl)-9-Methyl-2-Methylthioadenine] | 6.3 | 5.5 | – | 0.299 ± 0.074 µM | – | –
13 | Cn1cnc2c(NCc3cccc(I)c3)nc(Sc3ccncc3)nc21 [Compound 17, N^6-(3-Iodobenzyl)-9-Methyl-2-(4-Pyridylthio)adenine] | 0.0051 | 0.070 | – | 166 ± 57 µM | – | –
14 | OCCn1cnc2c(NCc3cccc(I)c3)ncnc21 [Compound 18, N^6-(3-Iodobenzyl)-9-Hydroxyethyladenine] | – | 0.24 | 0.37 | – | – | –
15 | CSc1nc(NCc2cccc(I)c2)c2ncn(C[C@@H](O)CO)c2n1 [Compound 19b, R-N^6-(3-Iodobenzyl)-9-(2,3-dihydroxypropyl)-2-methylthioadenine] | 0.16 | 9.2 | – | – | – | –
16 | O=C(O)Cn1cnc2c(NCc3cccc(I)c3)ncnc21 [Compound 21, N^6-(3-Iodobenzyladenin-9-yl)acetic Acid] | – | – | – | 225 ± 17 µM | – | –

Row | Compound | A1 /A3 (printed Ai /A3) [1] | A2a /A3 [1] | A1 /A3 (printed Ai /A3) [2] | Ki [2] | Ki [3] | Ki [1]
17 | N#CCCCn1cnc2c(NCc3cccc(I)c3)ncnc21 [Compound 22, N^6-(3-Iodobenzyl)-9-(3-Cyanopropyl)adenine] | 0.032 | 0.10 | – | 185 ± 17 µM | – | –
18 | O[C@@H]1[C@H](O)CO[C@H]1n1cnc2c(NCc3cccc(I)c3)nc(Cl)nc21 [Compound 28, 2-Chloro-9-(b-D-erythrofuranoside)-N^6-(3-iodobenzyl)adenine] | 2.9 | 10 | – | – | 0.276 ± 0.11 µM | –
19 | CNc1nc(NCc2cccc(I)c2)c2ncn([C@@H]3OC[C@@H](O)[C@H]3O)c2n1 [Compound 29, 9-(β-D-Erythrofuranoside)-2-Methylamino-N^6-(3-Iodobenzyl)adenine] | 0.0096 | 0.049 | – | – | 69 µM | –
20 | CNC(=O)[C@@H]1C[C@@H](OC(C)=O)[C@H](n2cnc3c(NCc4cccc(I)c4)nc(Cl)nc32)O1 [Compound 37, 9-(2-Acetyl-3-Deoxy-β-D-5-Methyl-Ribofuronamido)-2-Chloro -N^6-(3-Iodobenzyl)adenine] | 12 | 250 | – | 0.0625 ± 0.031 µM | – | –
21 | CNC(=O)[C@@H]1CC[C@H](n2cnc3c(NCc4ccccc4)nc(Cl)nc32)O1 [Compound 40, 2-Chloro-9-(2,3-Dideoxy-β-D-5-Methyl-Ribofuronamido)-N^6 -Benzyladenine] | 0.37 | 7.1 | – | – | – | –
22 | CNC(=O)[C@@H]1C[C@@H](OS(C)(=O)=O)[C@H](n2cnc3c(NCc4cccc(I)c4)nc(Cl)nc32)O1 [Compound 41, 2-Chloro-9-(3-Deoxy-2-Methanesulfonyl-β-D-5-Methyl-Ribofuronamido)-N^6-(3-Iodobenzyl)adenine] | – | 5.8 | 0.18 | – | – | –
23 | CNC(=O)[C@@H]1C[C@@H](O)[C@H](n2cnc3c(NCc4cccc(I)c4)nc(Cl)nc32)O1 [Compound 41b, 2-Chloro-9-(3-Deoxy-β-D-5-Methyl-Ribofuronamido)-N^6-(3-Iodobenzyl)adenine] | 31 | 140 | – | 0.0329 ± 0.0078 µM | – | –
24 | CNC(=O)[C@@H]1C[C@H](N=[N+]=[N-])[C@H](n2cnc3c(NCc4cccc(I)c4)nc(Cl)nc32)O1 [Compound 42, 2-Chloro-9-(2'-Azido-2',3'-Dideoxy-β-D-5'-Methyl-Arabinofuronamido)-N^6 (3-Iodobenzyladenine)] | 0.067 | 4.7 | – | – | – | –
25 | CNC(=O)[C@@H]1C[C@H](F)[C@H](n2cnc3c(NCc4cccc(I)c4)nc(Cl)nc32)O1 [Compound 44, 2-Chloro-9-(2',3'-Dideoxy-2'-Fluoro-β-D-5'-Methyl-Arabinofuronamido)-N^6-(3-Iodobenzyl)adenine] | 0.080 | 5.5 | – | – | – | –
26 | CC(C)[Si]1(C(C)C)OC[C@H]2O[C@@H](n3cnc4c(NCc5cccc(I)c5)nc(Cl)nc43)[C@H](O)[C@@H]2O[Si](C(C)C)(C(C)C)O1 [Compound 45, 2-Chloro-9-(3,5-1,1,3,3-Tetraisopropyldisiloxyl-β-D-5-Ribofuranosyl)-N^6-(3-Iodobenzyl)adenine] | 5.1 | > 7 | – | – | – | –
27 | CNC(=O)[C@H]1O[C@@H](n2cnc3c(NCc4cccc(I)c4)nc(Cl)nc32)[C@@H]2OC(=S)O[C@@H]21 [Compound 46, 2-Chloro-9-(2',3'-O-Thiocarbonyl-β-D-5-Methyl-Ribofuronamido)-N^6-(3-Iodobenzyl)adenine] | 15 | 71 | – | – | – | –
28 | CNC(=O)[C@H]1O[C@@H](n2cnc3c(NCc4cccc(NC(=O)[C@@H]5CCCN5)c4)ncnc32)[C@H](O)[C@@H]1O [Compound 65, N^6-[3-(L-Prolylamino)Benzyl]Adenosine-5'-N-Methyluronamide] | 0.014 | 0.018 | – | – | – | 11.7 µM
29 | CNC(=O)[C@H]1O[C@@H](n2cnc3c(NCc4cccc(NC(=O)CCN)c4)ncnc32)[C@H](O)[C@@H]1O [Compound 66, N^6-[3(β-Alanylamino)Benzyl]Adenosine-5'-Methyluronamide] | 4.5 | 6.3 | – | – | – | 0.0229 µM
30 | CNC(=O)[C@H]1O[C@@H](n2cnc3c(NCc4cccc(NC(=O)CCNC(=O)OC(C)(C)C)c4)ncnc32)[C@H](O)[C@@H]1O [Compound 67, N^6-[3-(N-6-Boc-β-Alanylamino)Benzyl]Adenosine-5'-Methyluronamide] | 96 | 42 | – | – | – | 0.0468 µM
31 | CNC(=O)[C@H]1O[C@@H](n2cnc3c(NNc4ccccc4)ncnc32)[C@H](O)[C@@H]1O [Compound 70, 6-(N'-phenylhydrazinyl)Purine-9-β-Ribofuranoside-5'-N-Methyluronamide] | 18 | 31 | – | – | – | 0.224 µM
32 | CNC(=O)[C@H]1O[C@@H](n2cnc3c(NOc4ccccc4)ncnc32)[C@H](O)[C@@H]1O [Compound 71] | 50 | – | – | – | – | 1.35 µM
